From patent EP0248972A2, “Ammoniummonofluorophosphates, process for their preparation and their use” (Benckiser-Knapsack GmbH, priority 1986, dated 1987)

Experiment: Solubility in glycerol
Type: physicochemical

CCCCCCCC/C=C\CCCCCCCCNCCCN [N-Oleyl-1,3-diammoniumpropanmonofluorophosphat]
Löslichkeit in Glycerin: > 10%
